# Binding of CDR-mutated scFvs to a peptide of the spike HR2 region

Target peptide (SARS-CoV-2 spike, HR2 region): PDVDLGDISGINAS

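Phage display of a naive human antibody library on the peptide gave the parent. Designed CDR sequences, proposed from the first random library and measured here. Group labels follow the data file (Ctrl: baseline library sampled from a position-specific scoring matrix, with some repeated check sequences; Rand: our label for a block that the file lists under HC and that is probably the random mutants of the ten best first-round binders; GP: Gaussian process model; GPLM: also part of the Gaussian process libraries; HC: hill climbing; Gen: genetic algorithm; Gibbs: Gibbs sampling; a sequence that several methods proposed may carry one label only). The scFvs were displayed on barcoded MATa yeast, the peptide on MATalpha yeast. Pairs that bind mate more often; barcode pairs of the diploids are counted by sequencing. Scores were corrected for input abundance and mapped to Kd with protein pairs of known affinity run in the same pool. Mating was done six times.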

The variants keep the light chain, the linker and the frameworks of Ab-14 (scFv order VH, the linker GGGGSGGGGSGGGGS, VL).
VH: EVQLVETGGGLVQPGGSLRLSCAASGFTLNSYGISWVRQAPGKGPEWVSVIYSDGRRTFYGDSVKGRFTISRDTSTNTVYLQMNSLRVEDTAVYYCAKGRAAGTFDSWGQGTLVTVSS
VL: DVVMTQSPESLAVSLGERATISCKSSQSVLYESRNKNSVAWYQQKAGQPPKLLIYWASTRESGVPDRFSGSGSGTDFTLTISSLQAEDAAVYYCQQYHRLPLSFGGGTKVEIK

Changes read parent residue, position, new residue, counted from the first residue of the VH shown.
Variants here have at most six changes.
Affinities are written as log10 Kd with Kd in nM; a lower number is a better binder.
"nd" means that the variant was in the library but no mating with the target was seen in that replicate; the authors take this as a sign of poor binding, and no number exists.
The parent sequence was in this pool as ten entries: three were never detected, three once, and four in most replicates, with averages from 0.34 to 2.37.
Some sequences occur more than once in the pool; their replicates are listed entry by entry, parted by semicolons.
The authors averaged sequences with at least three values out of six and counted those with two or fewer as poor binders.
Three control strains display no target. For all heavy chain designs, 1% of the pairings with them gave a signal, with a median of 2.08 and one signal in twenty below 0.84, so weak values seen in few replicates may be background. For each scFv, signals with the empty controls are counted beside the result.
A sequence measured in both rounds can read differently, since the two assays cover different ranges.

Variant R56K+G61S+G103R [Ctrl] showed nd, nd, nd, nd, nd, nd (controls 0 of 18). With T28N+G61A+A101S [GPLM_Gibbs] the result was nd, 1.04, 1.19, 1.86, 3.02, nd (controls 0 of 18). Variant R56K+G99C+S107Q [Ctrl] gave nd, nd, nd, nd, nd, nd (controls 0 of 18). Variant F59S+G61S+R100T+G103K [Ctrl] showed nd, nd, nd, nd, nd, 2.93 (controls 0 of 18). Variant T28E+S31M+R100E [GP_Gen] gave 1.19, 0.87, 1.15, 1.19, 0.90, 1.19 (controls 0 of 18). For S31D+F59Q+G61I+D106V+S107V [Rand], the assay gave nd, nd, nd, nd, nd, nd (controls 0 of 18).

For S31E+G61T+A101T+T104M [GPLM_HC], the assay gave 0.60, -0.51, -0.44, -0.36, 0.47, -0.25 (controls 0 of 18). For N30E+S31K+D106T [GP_HC], the assay gave nd, nd, nd, nd, nd, nd (controls 0 of 18). Variant F27T+G61H+V64T+D106F [Ctrl] gave nd, nd, nd, nd, nd, nd (controls 0 of 18). Variant S53A+A101H+D106K [GP_HC] gave nd, nd, nd, nd, nd, nd (controls 0 of 18). With T28N+S31D+G61S+A101V+F105G [Ctrl] the result was 1.03, 1.90, 0.99, 0.62, 1.66, 1.64 (controls 0 of 18). With S53A+R100D [Ctrl+GPLM_Gen] the result was -0.06, -0.02, -0.31, -0.27, 0.08, 0.02; 0.01, -0.01, -0.05, -0.24, -0.10, -0.20 (controls 1 of 36).

Variant T28S+S31N+G61S+R100Q [GPLM_Gen] gave 0.86, 0.73, 0.59, 0.19, 0.59, 0.52 (controls 0 of 18). Variant G61D+R100Q+A101T+S107R [GP_HC] gave nd, nd, nd, nd, nd, nd (controls 0 of 18). For T28S+R100M+A101N [GPLM_Gibbs], the assay gave 0.27, 0.26, 0.04, 0.02, 0.00, 0.54 (controls 1 of 18). Variant S31D+G61T+R100K+D106I [GPLM_HC] gave nd, nd, nd, nd, nd, nd (controls 0 of 18). For T28R+L29I+F59A+S107L [Ctrl], the assay gave nd, 1.45, nd, 1.31, 1.79, nd (controls 1 of 18). Variant S31E+D62E+G103V+S107T [GP_HC] showed 0.57, nd, nd, nd, nd, nd (controls 0 of 18).

Variant T28E+S31E+S63R+A101T [GP_Gen] gave 0.77, 0.11, -0.09, 0.57, -0.09, 0.15 (controls 0 of 18). With T28S+G61D+S63R+A101E [GP_Gibbs] the result was 0.07, -0.09, -0.06, -0.04, -0.06, 0.11 (controls 0 of 18). Variant T28E+G61D+R100K+A101L [GP_HC] gave 0.62, 0.35, 0.60, 0.69, 0.33, 0.16 (controls 0 of 18). For R56Q+G61S+R100Q+A101E+S107T [GP_Gibbs], the assay gave 0.14, 0.05, 0.08, 0.51, 0.06, 0.48 (controls 0 of 18). With T28S+G61D+R100K+A101Q [GP_Gen] the result was 1.77, nd, 1.91, 1.49, nd, 2.07 (controls 0 of 18). Variant N30D+S63L+G103Q+F105A+D106L [Rand] gave 1.56, nd, nd, nd, nd, nd (controls 0 of 18).

For S31D+T58Q+G61I [GPLM_HC], the assay gave 0.10, 2.08, 0.53, 2.09, 0.35, 0.88 (controls 0 of 18). With T28A+G61A+R100Q+S107L [GPLM_Gen] the result was 0.62, 0.45, 0.87, 0.42, 0.75, 1.08 (controls 0 of 18). For R56I+A101E+G103D [Ctrl], the assay gave nd, nd, nd, nd, nd, nd (controls 0 of 18). With N30K+G61D+R100K+A101E [GP_HC] the result was 0.51, 0.66, 0.82, 0.43, 0.89, 0.49 (controls 0 of 18). Variant T28D+S63G+A101T [GPLM_Gen] showed 0.48, 0.20, 0.33, -0.87, -0.33, 0.36 (controls 0 of 18). Variant T28S+G61A+A101W [GPLM_Gen] gave 0.92, 0.73, 1.01, 0.41, 1.17, 0.69 (controls 0 of 18).

With S31E+D106I+S107T [GPLM_HC] the result was nd, 2.72, nd, nd, nd, nd (controls 0 of 18). For N30D+D106T+S107V [GP_HC], the assay gave nd, nd, nd, nd, nd, nd (controls 0 of 18). Variant S53L+T58L+G61S [Ctrl] gave nd, nd, nd, nd, nd, nd (controls 0 of 18). With T28D+S63M+R100K+A101T+S107D [GP_Gibbs] the result was 0.85, -0.27, -0.19, -0.21, 0.09, -0.08 (controls 1 of 18). Variant T28E+S53A+G61Q+R100K [GP_Gibbs] gave -0.24, -0.43, -0.02, -0.80, -0.39, 0.09 (controls 0 of 18). Variant F27K+R100Q+A101T+S107T [GP_Gibbs] showed 1.54, 0.15, 0.28, -0.28, 0.59, 0.63 (controls 0 of 18).

For T28D+R56K+G61A+R100Q [GPLM_Gibbs], the assay gave 0.47, 0.44, 0.30, 0.78, 0.64, 0.35 (controls 0 of 18). Variant G55T+G61M [Ctrl] gave nd, nd, nd, nd, nd, nd (controls 0 of 18). Variant S31E+R56M+A101H [GP_Gen] gave 0.10, 0.20, 0.49, 1.01, 0.84, 1.14 (controls 0 of 18). For T28V+R56M+G61S+S63A+K65A [Ctrl], the assay gave nd, nd, nd, 1.84, 1.80, nd (controls 0 of 18). For R56H+G61Q [Ctrl], the assay gave nd, 3.40, nd, nd, nd, nd (controls 0 of 18). Variant R57K+R100A+A101E [Ctrl] showed 1.43, 0.73, 1.47, 2.00, 1.06, 1.60 (controls 0 of 18).

For S31D+G61S+A101G [GP_HC], the assay gave 1.43, 2.39, 1.35, 2.16, 1.68, 1.24 (controls 0 of 18). With A101S+S107M [Ctrl] the result was nd, nd, nd, 1.20, nd, nd (controls 1 of 18). For T28Y+S31E+A101T [GPLM_Gen], the assay gave 1.88, 1.50, 1.38, 1.13, 0.89, 1.17 (controls 0 of 18). For T28D+G61Q+S63R+R100E [GP_Gen], the assay gave 0.87, 0.80, 4.01, 0.30, 1.29, 2.63 (controls 0 of 18). Variant R56K+R100E+S107T [GPLM_Gibbs] showed 1.08, 1.04, 1.12, 0.89, 1.10, 1.22 (controls 1 of 18). With G99E+R100S [Ctrl] the result was nd, nd, nd, nd, nd, nd (controls 0 of 18).

Variant S31D+Y52G+F59V+G103L+D106I+S107R [Rand] showed nd, nd, nd, nd, nd, nd (controls 0 of 18). Variant T28S+S31C+A101T [GPLM_Gen] gave nd, nd, nd, nd, 1.83, 1.11 (controls 0 of 18). Variant T28D+A101T+S107Y [GP_Gen] gave 2.31, 2.29, nd, nd, nd, 1.17 (controls 0 of 18). Variant T28D+G61I+A101W [GP_Gen] showed 0.79, nd, 0.60, 0.88, 0.41, 0.84 (controls 0 of 18).

Top 5 of the variants detected in all replicates, tightest first:

T28E+S53A+G61Q+R100K [GP_Gibbs]: -0.24, -0.43, -0.02, -0.80, -0.39, 0.09 (controls 0 of 18).
S53A+R100D [Ctrl+GPLM_Gen]: -0.06, -0.02, -0.31, -0.27, 0.08, 0.02; 0.01, -0.01, -0.05, -0.24, -0.10, -0.20 (controls 1 of 36).
S31E+G61T+A101T+T104M [GPLM_HC]: 0.60, -0.51, -0.44, -0.36, 0.47, -0.25 (controls 0 of 18).
T28S+G61D+S63R+A101E [GP_Gibbs]: 0.07, -0.09, -0.06, -0.04, -0.06, 0.11 (controls 0 of 18).
T28D+S63G+A101T [GPLM_Gen]: 0.48, 0.20, 0.33, -0.87, -0.33, 0.36 (controls 0 of 18).

Values reported by Li et al. 2023, doi:10.1038/s41467-023-39022-2 (FLAb copy).